The results in this text go back to patent publication US9598387B2 (Southern Research Institute, priority 2012, dated 2017).

Amino acid sequences for entries named in this document (tags omitted). A change or cut given only in a name is not applied to a line headed by its entry.
UniProt P35462, whole entry: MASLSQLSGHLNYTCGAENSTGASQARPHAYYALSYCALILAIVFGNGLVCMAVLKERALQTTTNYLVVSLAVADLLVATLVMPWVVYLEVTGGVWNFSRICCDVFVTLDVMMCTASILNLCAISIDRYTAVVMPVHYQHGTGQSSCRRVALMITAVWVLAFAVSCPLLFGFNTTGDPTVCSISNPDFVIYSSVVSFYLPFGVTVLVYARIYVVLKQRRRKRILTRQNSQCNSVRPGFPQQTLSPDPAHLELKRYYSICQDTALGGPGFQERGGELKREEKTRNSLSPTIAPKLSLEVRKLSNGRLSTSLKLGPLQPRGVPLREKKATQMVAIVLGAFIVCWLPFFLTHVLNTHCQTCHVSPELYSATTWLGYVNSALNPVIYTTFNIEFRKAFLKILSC

Experiment [1] addresses T1, D3R (Homo sapiens (Human), UniProt P35462). As to the kind of experiment: β-Arrestin Recruitment Assay, U2OS DRD3. The class given is cell-based. As to conditions: antagonist vs EC80 8 nM PD128907, U2OS DRD3 cells; read-out: D3 IC50. The method, then:
Antagonist potency of the compounds against agonist induced recruitment of β-arrestin by D3R and D2LR was measured using DiscoverRx PathHunter eXpress kits. Briefly, U2OS DRD3 (DiscoveRx #93-0591E3) and CHO-K1 DRD2L (DiscoveRx #93-0579E2) cells were seeded at a density of 2500 cells/well in 384-well white, clear-bottom plates (Corning #3707) with PathHunter Cell Plating Reagents, CP0 (DiscoveRx #93-0563R0) and CP2 (DiscoveRx #93-0563R2), respectively and incubated at 37° C. for 48 hours. For the determination of EC80 values of standard agonists, the cells were treated with multiple concentrations (starting from 190 nM, 1:3 dilution, 12 dose points) of (+)-PD128907 (DiscoveRx #92-1163) for DRD3 and Pergolide (DiscoveRx #92-1162) for DRD2L. After incubation at 37° C. for 90 min, the DiscoveRx detection reagent was added, the plates were incubated at room temperature for 60 min and the luminescence was measured on a Synergy 4 plate reader (BioTek). The data were plotted and the agonist EC80 values were calculated using GraphPad Prism software. For antagonist activity, the cells were plated as described above and treated with multiple concentrations (starting from 500 nM, half log dilution, 10 dose points) of the test compounds in Plating Reagent with 0.1% DMSO. […]

In experiment [2] the target is T1, D3R. As to the kind of experiment: [35S]GTPγS Binding Assay, CHO D3 membranes. The class given is biochemical. As to conditions: antagonist vs dopamine; Ke = functional Ki; read-out: CHO-hD3 Ke.
For experiment [3], the target named is human D3 dopamine receptor (Homo sapiens (Human), UniProt P35462). As to the kind of experiment: Radioligand binding (125I-IABN competition), D3. Conditions: HEK cell membranes expressing human D3.

Consider `CC(C)(C)c1nc(N2CCN(CCCCNC(=O)C3CCC(c4ccccc4)CC3)CC2)cc(C(F)(F)F)n1` (stereo not drawn) [Compound 103, N-(4-(4-(2-(tert-Butyl)-6-(trifluoromethyl)pyrimidin-4-yl)piperazin-1-yl)butyl)-4-phenylcyclohexanecarboxamide], for which the IC50 in experiment [1] was 6.75 ± 1.81 nM. Further, the Ki was found to be 18.7 ± 4.4 nM in experiment [2] and 9.4 ± 2.3 nM in experiment [3].
